{
  "source": "patent US11737991B2",
  "about": "“Eutectic formulations of cyclobenzaprine hydrochloride and amitriptyline hydrochloride” (TONIX PHARMA HOLDINGS LIMITED, priority 2013, dated 2023)",
  "test": "DSC, FT-IR/ATR and XRPD compatibility of excipients with Cyclobenzaprine HCl, mixed (A) and milled (B) 1:1 mixtures (Example 2)",
  "type": "physicochemical",
  "description": "As described above, thermal analytical techniques were further used to assess the compatibility of a drug product (tablet) containing Cyclobenzaprine HCl (API). The compatibility assessment was carried out between the API and additional excipients in a 1:1 ratio. The 1:1 APT-excipient mixtures were formed in two different ways: first, by mixing only, and second, by strong milling in an agate mortar. The thermal behavior recorded in the two different mixtures were compared with those of the single components. On the basis of thermal events recorded for each component and for the mixtures, the analyses were carried out by investigating the meanings of the peaks recorded by differential scanning calorimetry (DSC) in mixtures between the API and the excipients. Furthermore, in order to define the nature of the interaction, the Fourier Transform Infra Red Spectroscopy with Total Attenuated Reflectance (FT-IR/ATR) and X-ray powder diffraction (XRPD) of some samples (API, excipient, and mixed and milled mixtures) was carried out and compared.\nAliquots of API and each excipient were weighed in a ratio of 1:1 and ground in an agate mortar. Then, the homogeneous mixtures were analyzed. These sample mixtures were labeled “B”, while the mechanical-only mixtures were labeled “A.”\nThe DSC heating curves were obtained by TA 821 DSC Mettler instrument under the following conditions: […]",
  "data": [
    {"substance": "Disodium Glycine Carbonate [Di Sodium Glycine carbonate]", "values": [
      {"measurement": "Nature of interaction by FT-IR/ATR", "setting": "1:1 mixture, room temperature, no thermal treatment", "value": "no chemical acid-basis reaction occurred"},
      {"measurement": "Type of interaction between excipient and API (summary)", "setting": "1:1 mixtures, mixed and milled", "value": "only physical"}
    ]}
  ]
}
